Results on three compounds are retold here after PubChem BioAssay AID1259376 (The Scripps Research Institute Molecular Screening Center, 2018).

The list shows a part of the results, in another mix than the full data. Calls of active or inactive are those of the source.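 Rule for the calls: active = inhibition above a cutoff derived from the DMSO control wells (cut at about 30% in these data); inactive = the rest.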

For orientation: inhibition means the change of the read-out against control, counted positive when it falls.

This test in a line: AlphaScreen optical interference compounds, counter-screen for MITF inhibitor project, biochemical, triplicate (AID 1259376). The following applies: LysRS AlphaScreen counterscreen, signal interference, at 2.6 µM, stronger effect = higher value. On the technique in general: Bead proximity is the source of the signal in Alpha formats.
Take `Cc1ccc([N+](=O)[O-])c2no[n+]([O-])c12`: the inhibition is inactive: -1.23%.

Take `CC(C)OP(=O)(OC(C)C)C(=O)c1ccco1`: the inhibition is inactive: 10.7%.

On to `CCOP(=O)(CN)OCC`, for which the inhibition is inactive: 17.6%.
